Data as given in ChEMBL document CHEMBL1909046, “DrugMatrix in vitro pharmacology data”.

Sequences of proteins named here, by UniProt entry; tags and fusion partners are left off. A change or cut given only in a name is not applied to a line headed by its entry.
UniProt P35372, whole entry, looked up: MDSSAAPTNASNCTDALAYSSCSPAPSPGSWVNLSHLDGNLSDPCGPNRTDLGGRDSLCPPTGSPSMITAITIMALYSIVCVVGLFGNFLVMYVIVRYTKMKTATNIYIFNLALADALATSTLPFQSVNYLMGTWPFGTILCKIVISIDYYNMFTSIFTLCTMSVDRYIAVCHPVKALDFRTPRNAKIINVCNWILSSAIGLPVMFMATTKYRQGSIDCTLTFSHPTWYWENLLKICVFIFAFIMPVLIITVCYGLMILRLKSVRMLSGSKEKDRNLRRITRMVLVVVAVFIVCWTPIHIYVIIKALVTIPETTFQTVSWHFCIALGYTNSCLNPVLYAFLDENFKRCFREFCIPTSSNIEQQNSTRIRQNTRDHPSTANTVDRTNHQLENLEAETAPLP
UniProt P41145: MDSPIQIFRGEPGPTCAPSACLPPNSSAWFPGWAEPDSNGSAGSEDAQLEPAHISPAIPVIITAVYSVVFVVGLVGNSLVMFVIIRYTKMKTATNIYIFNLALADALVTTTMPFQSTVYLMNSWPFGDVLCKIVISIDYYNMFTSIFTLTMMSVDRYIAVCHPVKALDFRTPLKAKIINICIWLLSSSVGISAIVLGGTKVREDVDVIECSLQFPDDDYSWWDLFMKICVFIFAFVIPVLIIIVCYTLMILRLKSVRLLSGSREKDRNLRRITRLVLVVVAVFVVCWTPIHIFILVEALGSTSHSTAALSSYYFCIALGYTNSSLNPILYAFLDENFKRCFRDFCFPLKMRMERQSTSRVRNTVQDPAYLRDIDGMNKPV

Tests used:
Mu-type opioid receptor = Mu-type opioid receptor (Homo sapiens, UniProt P35372); test: DRUGMATRIX: Opiate mu (OP3, MOP) radioligand binding (ligand: [3H] Diprenorphine); conditions: cho-k1
[1] = molecular target: Kappa-type opioid receptor (Homo sapiens, UniProt P41145); test: DRUGMATRIX: Opiate kappa (OP2, KOP) radioligand binding (ligand: [3H] Diprenorphine); conditions: hek293

CC(Cl)(Cl)Cl
Not Active: IC50 (Mu-type opioid receptor) | Ki (Mu-type opioid receptor) | IC50 [1] | Ki [1]

NNCCc1ccccc1
Not Active: IC50 [1] | Ki [1]

C=C(C)[C@@H]1[C@H]2OC(=O)[C@@H]1[C@]1(O)C[C@H]3O[C@]34C(=O)O[C@H]2[C@]14C
Not Active: IC50 (Mu-type opioid receptor) | Ki (Mu-type opioid receptor) | IC50 [1] | Ki [1]

ClC1=C(Cl)[C@]2(Cl)[C@@H]3[C@@H]4C[C@@H]([C@H]5O[C@@H]45)[C@@H]3[C@@]1(Cl)C2(Cl)Cl
Not Active: IC50 (Mu-type opioid receptor) | Ki (Mu-type opioid receptor) | IC50 [1] | Ki [1]

C[N+]1(C)[C@@H]2C[C@@H](OC(=O)[C@H](CO)c3ccccc3)C[C@H]1[C@@H]1O[C@@H]12.[Br-]
Not Active: IC50 [1] | Ki [1]

COc1cc([C@@H]2c3cc4c(cc3[C@H](O)[C@H]3COC(=O)[C@H]23)OCO4)cc(OC)c1OC
Not Active: IC50 (Mu-type opioid receptor) | Ki (Mu-type opioid receptor) | IC50 [1] | Ki [1]

Cc1ccc2cc3c(ccc4ccccc43)c3c2c1CC3
Not Active: IC50 (Mu-type opioid receptor) | Ki (Mu-type opioid receptor) | IC50 [1] | Ki [1]

C[C@@H](CO)NC(=O)[C@@H]1C=C2c3cccc4[nH]cc(c34)C[C@H]2N(C)C1 [ERGONOVINE]
Not Active: IC50 (Mu-type opioid receptor) | Ki (Mu-type opioid receptor) | IC50 [1] | Ki [1]

CN1C[C@H](C(=O)N[C@]2(C)O[C@@]3(O)[C@@H]4CCCN4C(=O)[C@H](Cc4ccccc4)N3C2=O)C=C2c3cccc4[nH]cc(c34)C[C@H]21
Not Active: IC50 (Mu-type opioid receptor) | Ki (Mu-type opioid receptor) | IC50 [1] | Ki [1]

CCCCCCCCCc1ccc(O)cc1
Not Active: IC50 (Mu-type opioid receptor) | Ki (Mu-type opioid receptor) | IC50 [1] | Ki [1]
